Data set [1] is described as follows: Solubility of diols in fully demineralized water. It is filed as physicochemical.
A short description of data set [2]: Solubility of mixture A + diols. Format: physicochemical. The following applies: 10g of substance added to 90g of mixture A.

Take 1,3-propanediol: the Solubility entry in data set [1] is reported as “Unlimited”. The “Solubility of mixture A + diols” value in data set [2] is reported as “no clear solution”.

The values above are taken from patent publication EP3496534B1, “LIQUID CONCENTRATE FOR PRESERVATION” (Ashland Industries Europe GmbH, priority 2016, dated 2018).
